# Values of other authors as cited in patent US20140212981A1, “METHODS AND SYSTEMS FOR DETERMINING THE AMOUNT OF THIOPURINE METABOLITES IN A SAMPLE” (Laboratory Corporation of America Holdings, priority 2012, published 2014).
# Conditions: metabolite level in red blood cells; levels in this range require modulation of therapy; cited from earlier work
substance,measurement,value
6-thioguanine nucleotides [6-TGNs],Alert Values,>450 pmol/8 × 10^8RBC
